Experimental data reported in US12453728B1, “Compositions comprising inhibitors of microsomal triglyceride transfer protein and Apo-B secretion” (Redux Therapeutics, LLC, priority 2024, dated 2025).

Experiment: Safety and tolerability in the olanzapine study
Settings: whole study

## COc1cccc(C(=O)Nc2ccc3c(c2)CCN(C(=O)Oc2ccccc2)C3)c1-c1ccc(C(F)(F)F)cc1 [Compound 3]
  SAEs, fatal events, discontinuations due to adverse events: No SAEs, fatal events, or discontinuations due to adverse events
